PMC3794474 (Journal of medicinal chemistry, 2011)

Test system: picrotoxin binding site on GABAA receptors
Assay: [35S]-TBPS displacement

C[C@]12CC[C@@H](O)C[C@@H]1CC[C@@H]1[C@@H]2C(=O)C[C@]2(C)/C(=C\C#N)CC[C@@H]12 [Compound 6a, [3α,5α,17(20)Z]-3-Hydroxy-11-oxopregn-17(20)-ene-21-nitrile]
[35S]-TBPS displacement potency relative to steroid 2 (more potent than steroid 2 (ratio of IC50 values)): ~ 17 fold
[35S]-TBPS displacement potency relative to steroid 6b (more potent than steroid 6b (ratio of IC50 values)): ~ 16 fold
